# Ab-14 heavy chain CDR variants: yeast mating affinities

Data: MIT Lincoln Laboratory AlphaSeq set, Engelhart et al. 2022, doi:10.1038/s41597-022-01779-4, as distributed in FLAb.

Target peptide (SARS-CoV-2 spike, HR2 region): PDVDLGDISGINAS

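The parent was found by panning a naive human phage display library on the peptide. Library AAYL49 holds single substitutions and randomly drawn double and triple substitutions in the CDRs. Affinity was read by AlphaSeq, a pooled yeast mating assay with surface-displayed partners. The frequency of each diploid, read from paired DNA barcodes, reflects how well the two displayed proteins bind. Read counts were normalised to the haploid input and turned into Kd by a linear fit to BCL2-family pairs of known affinity, for each replicate. Mating was done three times.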

Parent: Ab-14, a human scFv built as VH, three GGGGS repeats, VL. Only the CDRs of the heavy chain vary.
VH: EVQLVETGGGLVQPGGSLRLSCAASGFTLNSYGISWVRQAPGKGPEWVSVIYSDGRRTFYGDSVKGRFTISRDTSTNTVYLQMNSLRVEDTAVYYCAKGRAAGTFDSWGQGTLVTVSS
VL: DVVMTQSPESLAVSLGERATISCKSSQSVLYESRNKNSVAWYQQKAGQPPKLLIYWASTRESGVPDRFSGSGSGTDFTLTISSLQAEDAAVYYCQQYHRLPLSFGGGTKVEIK

Positions count from residue 1 of the parent VH; S31M puts M in place of S.
Numbers give log10(Kd / nM), so 0 is 1 nM and 3 is 1 µM. Smaller is tighter.
An entry "nd" has no value in the source: the pair was not observed among the diploids in that replicate. This suggests poor binding but is not conclusive.
Nonspecific signal, from three strains lacking the peptide, appeared in 15% of pairings of library AAYL49, centred on 4.06 (5% of these signals below 2.83); values are not corrected for it. Also given: how often the same scFv was detected with the empty control strains, with their mean in brackets.
For reference, the parent read 0.65 as the reference entry and 4.11 (one replicate of three) as a member of this library.

| # | changes | log10 Kd, replicates | control signals |
|---|---|---|---|
| 1 | S31M+Y32D | 6.31 / 5.11 / nd | 4/9 (4.46) |
| 2 | Y52N+G99P+F105H | nd / 4.11 / 6.05 | 1/9 (4.90) |
| 3 | G33W+F59G+S107W | nd / nd / nd | 3/9 (4.15) |
| 4 | I34N+S63M+D106H | 4.48 / 4.14 / 6.21 | 7/9 (4.28) |
| 5 | S31F+R57S | nd / nd / nd | 0/9 |
| 6 | G61W+A102L+T104D | nd / nd / nd | 0/9 |
| 7 | L29F+Y52T | nd / nd / 2.85 | 2/9 (4.00) |
| 8 | T58L+R100E+T104E | nd / nd / nd | 0/9 |
| 9 | G55V+S63H+G103C | nd / nd / nd | 0/9 |
| 10 | V50F+I51D | nd / nd / nd | 0/9 |
| 11 | L29P+R56I+S63Q | 4.31 / 4.24 / 4.99 | 3/9 (4.52) |
| 12 | G33T+S53L+D54F | nd / nd / nd | 0/9 |
| 13 | F27Y+S31C+A101M | 2.54 / nd / nd | 0/9 |
| 14 | L29T+R57F+A101D | nd / 2.71 / nd | 0/9 |
| 15 | R57S+F59R+G103C | nd / nd / nd | 1/9 (4.49) |
| 16 | G99W+R100I | nd / nd / nd | 3/9 (3.84) |
| 17 | I51S+Y60V+K65Y | nd / nd / nd | 1/9 (3.78) |
| 18 | G26C+G103V+F105A | nd / nd / nd | 0/9 |
| 19 | Y32W+R56H+R57W | nd / nd / nd | 0/9 |
| 20 | S63T+T104L | 2.09 / 2.11 / 2.45 | 0/9 |
| 21 | G61F+S63M+A101Y | nd / 3.08 / 5.10 | 3/9 (3.63) |
| 22 | G33W+D62C+D106L | nd / nd / nd | 1/9 (3.16) |
| 23 | I51W+S107F | nd / nd / nd | 0/9 |
| 24 | S35Y+Y52G+D62A | nd / nd / nd | 3/9 (4.19) |
| 25 | Y32C+S35T+I51N | nd / nd / nd | 0/9 |
| 26 | T28H+R56Y+G99S | 1.52 / 1.45 / 2.39 | 0/9 |
| 27 | S53F+D54S+D106H | 3.80 / nd / 4.52 | 1/9 (2.35) |
| 28 | I51W+T58V+D106W | nd / nd / nd | 2/9 (4.00) |
| 29 | T28Q+Y32R+R56P | nd / nd / nd | 1/9 (3.37) |
| 30 | G26P+I51Q+G61K | nd / 2.44 / nd | 0/9 |
| 31 | S31W+G33R+I34V | nd / nd / nd | 0/9 |
| 32 | N30F+S35R+G55N | nd / nd / nd | 1/9 (3.77) |
| 33 | R56K+F59L+Y60A | nd / nd / nd | 1/9 (2.66) |
| 34 | I34V+F59M+A102W | 5.33 / nd / nd | 2/9 (3.28) |
| 35 | L29F+R56I+G99C | 3.91 / 3.16 / 3.16 | 4/9 (4.54) |
| 36 | G26M+G61F+K65C | nd / nd / nd | 0/9 |
| 37 | G26P+S53K+A101S | 2.78 / nd / nd | 3/9 (4.16) |
| 38 | R56Y+G103Q+D106V | 3.10 / nd / 3.81 | 1/9 (3.91) |
| 39 | I34S+D54I+G103P | 3.26 / 3.92 / 4.95 | 2/9 (4.21) |
| 40 | A101V | 0.22 / 0.46 / 0.41 | 4/9 (4.16) |
| 41 | Y52R+R57P+F59A | nd / 3.54 / 6.42 | 4/9 (4.04) |
| 42 | L29C+V50C+G55K | nd / nd / nd | 2/9 (3.60) |
| 43 | T28G+Y60V+K65A | 2.86 / 3.04 / 3.85 | 4/9 (4.64) |
| 44 | I51T+G99I+G103K | nd / 4.71 / nd | 0/9 |
| 45 | S53I+D106A | 5.25 / 5.41 / nd | 5/9 (4.16) |
| 46 | T58N+D62Q+G103M | nd / nd / nd | 1/9 (3.42) |

For reference, 4 entries of the list once more:

| changes | log10 Kd, replicates | control signals |
|---|---|---|
| G55V+S63H+G103C | nd / nd / nd | 0/9 |
| S31M+Y32D | 6.31 / 5.11 / nd | 4/9 (4.46) |
| I51W+S107F | nd / nd / nd | 0/9 |
| G33W+D62C+D106L | nd / nd / nd | 1/9 (3.16) |